Reference: US11642336B2, “5-HT2A agonists for use in treatment of depression” (priority 2019, dated 2023)

Sequences of proteins named here, by UniProt entry; tags and fusion partners are left off. A change or cut given only in a name is not applied to a line headed by its entry.
UniProt P28335: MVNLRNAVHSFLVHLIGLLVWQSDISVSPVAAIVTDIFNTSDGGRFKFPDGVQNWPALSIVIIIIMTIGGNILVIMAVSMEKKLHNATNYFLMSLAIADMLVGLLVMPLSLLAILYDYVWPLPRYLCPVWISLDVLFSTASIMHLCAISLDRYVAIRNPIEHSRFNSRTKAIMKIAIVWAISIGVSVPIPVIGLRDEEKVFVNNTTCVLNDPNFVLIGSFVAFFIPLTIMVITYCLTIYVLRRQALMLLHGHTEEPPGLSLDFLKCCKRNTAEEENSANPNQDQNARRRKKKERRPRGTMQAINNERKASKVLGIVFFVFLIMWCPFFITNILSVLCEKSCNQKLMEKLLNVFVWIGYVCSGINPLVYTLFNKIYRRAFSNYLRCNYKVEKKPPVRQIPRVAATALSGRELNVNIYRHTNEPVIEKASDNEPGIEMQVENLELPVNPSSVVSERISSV
UniProt P41595, whole entry, looked up, species assumed: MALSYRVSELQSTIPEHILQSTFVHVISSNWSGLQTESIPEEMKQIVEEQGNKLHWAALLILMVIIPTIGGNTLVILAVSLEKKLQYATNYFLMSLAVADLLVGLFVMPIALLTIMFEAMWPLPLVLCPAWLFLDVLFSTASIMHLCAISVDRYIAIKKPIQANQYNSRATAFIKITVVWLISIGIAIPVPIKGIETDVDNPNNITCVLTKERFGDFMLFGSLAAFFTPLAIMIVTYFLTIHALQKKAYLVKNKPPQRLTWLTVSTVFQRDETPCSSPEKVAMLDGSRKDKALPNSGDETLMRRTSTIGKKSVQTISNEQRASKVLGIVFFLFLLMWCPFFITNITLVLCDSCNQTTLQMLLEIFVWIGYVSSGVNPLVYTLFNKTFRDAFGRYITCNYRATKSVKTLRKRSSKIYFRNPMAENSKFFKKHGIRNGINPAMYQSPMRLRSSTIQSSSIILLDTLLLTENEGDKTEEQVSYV

Tests used:
human 5-HT2A = human 5-HT2A (Homo sapiens (Human), UniProt P28223); assay type: cell-based; settings: % of the Rmax of 5-HT
5-HT2C = 5-HT2C (Homo sapiens (Human), UniProt P28335); assay: Ca2+/Fluo-4 assay, stable h5-HT2C-HEK293 cell line; assay type: cell-based; settings: % of the Rmax of 5-HT;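 also: Agonist-induced intracellular Ca2+ rise read by Fluo-4 fluorescence in HEK293 cells stably expressing the human 5-HT2C receptor, each compound run in duplicate on three or more occasions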
5-HT2B = 5-HT2B (Homo sapiens (Human), UniProt P41595); assay: radioligand competition binding assay (Psychiatric Drug Screening Program)

Row | Compound | 5-HT2A Rmax ± S.E.M (human 5-HT2A) [%] | 5-HT2C Rmax ± S.E.M (5-HT2C) [%] | Ki (5-HT2B) [nM]
1 | COc1cc([C@H]2CCCNC2)c(OC)cc1Cl [Compound 9, (R)-3-(4-Chloro-2,5-dimethoxyphenyl)piperidine] | 61 ± 2 | 26 ± 2 | –
2 | COc1cc([C@@H]2CCCNC2)c(OC)cc1Cl [Compound 10, (S)-3-(4-Chloro-2,5-dimethoxyphenyl)piperidine] | 32 ± 6 | – | –
3 | COc1cc([C@H]2CCCNC2)c(OC)cc1Br [Compound 11, (R)-3-(4-bromo-2,5-dimethoxyphenyl)piperidine] | 67 ± 6 | 34 ± 4 | –
4 | COc1cc([C@@H]2CCCNC2)c(OC)cc1Br [Compound 12, (S)-3-(4-bromo-2,5-dimethoxyphenyl)piperidine] | 37 ± 4 | – | –
5 | COc1cc([C@H]2CCCNC2)c(OC)cc1I [Compound 13, (R)-3-(4-Iodo-2,5-dimethoxyphenyl)piperidine] | 58 ± 4 | – | –
6 | COc1cc([C@@H]2CCCNC2)c(OC)cc1I [Compound 14, (S)-3-(4-Iodo-2,5-dimethoxyphenyl)piperidine] | 53 ± 3 | – | –
7 | COc1cc([C@H]2CCCNC2)c(OC)cc1C#N [Compound 15, (R)-2,5-dimethoxy-4-(piperidin-3-yl)benzonitrile] | 41 ± 6 | – | –
8 | COc1cc([C@@H]2CCCNC2)c(OC)cc1C#N [Compound 16, (S)-2,5-dimethoxy-4-(piperidin-3-yl)benzonitrile] | 25 ± 4 | – | –
9 | COc1cc([C@H]2CCCNC2)c(OC)cc1SC.Cl [Compound 17, (R)-3-(2,5-dimethoxy-4-(methylthio)phenyl)piperidine hydrochloride] | 85 ± 7 | 38 ± 5 | –
10 | COc1cc([C@@H]2CCCNC2)c(OC)cc1SC.Cl [Compound 18, (S)-3-(2,5-dimethoxy-4-(methylthio)phenyl)piperidine hydrochloride] | 84 ± 6 | 16 ± 2 | –
11 | CCOc1cc([C@@H]2CCCNC2)c(OC)cc1C(F)(F)F.Cl [Compound 20, (S)-3-(5-ethoxy-2-methoxy-4-(trifluoromethyl)phenyl)piperidine hydrochloride] | – | 44 ± 5 | –
12 | COc1cc([C@H]2CCCNC2)c(OC)cc1C.Cl [Compound 23, (R)-3-(2,5-dimethoxy-4-methylphenyl)piperidine hydrochloride] | 89 ± 4 | 53 ± 6 | –
13 | COc1cc([C@@H]2CCCNC2)c(OC)cc1C.Cl [Compound 24, (S)-3-(2,5-dimethoxy-4-methylphenyl)piperidine hydrochloride] | 75 ± 3 | – | –
14 | COc1cc([C@H]2CCCNC2)c(OC)cc1SC(C)C [Compound 25, (R)-3-(4-(isopropylthio)-2,5-dimethoxyphenyl)piperidine] | 91 ± 4 | – | –
15 | COc1cc([C@@H]2CCCNC2)c(OC)cc1SC(C)C [Compound 26, (S)-3-(4-(isopropylthio)-2,5-dimethoxyphenyl)piperidine] | 92 ± 4 | – | –
16 | CCOc1cc(C(F)(F)F)c(OC)cc1[C@H]1CCCNC1.Cl [Compound 29, (R)-3-(2-ethoxy-5-methoxy-4-(trifluoromethyl)phenyl)piperidine hydrochloride] | – | 34 ± 1 | –
17 | CCc1cc(OC)c([C@H]2CCCNC2)cc1OC.Cl [Compound 31, (R)-3-(4-ethyl-2,5-dimethoxyphenyl)piperidine hydrochloride] | 93 ± 5 | – | –
18 | COc1cc(C(F)(F)F)ccc1[C@H]1CCCNC1 [Compound 52, (R)-3-(2-methoxy-4-(trifluoromethyl)phenyl)piperidine hydrochloride] | – | 38 ± 6 | –
19 | CCCCc1cc(OC)c([C@H]2CCCNC2)cc1OC [Compound 56, (R)-3-(4-butyl-2,5-dimethoxyphenyl)piperidine hydrochloride] | 93 ± 5 | 68 ± 6 | –
20 | CCCCc1cc(OC)c([C@@H]2CCCNC2)cc1OC [Compound 57, (S)-3-(4-butyl-2,5-dimethoxyphenyl)piperidine hydrochloride] | 82 ± 2 | – | –
21 | COc1cc(C(F)(F)F)c(OC)cc1[C@@H]1CCCN(C)C1 [Compound 61, (S)-3-(2,5-dimethoxy-4-(trifluoromethyl)phenyl)-1-methylpiperidine] | – | 14 ± 2 | –
22 | CN(C)CCc1c[nH]c2cccc(O)c12 [Psilocin, psilocin] | – | – | 4.7

Where a name gives a salt, the structure may show the parent alone.
